Key:
MASP-2-CCS-Flag (human) = MASP-2-CCS-Flag (human) (UniProt O00187); test: SPR, Biacore T200, antibody captured on Protein A chip, MASP-2-CCS-Flag as analyte
[1] = biological target: human MASP-2 of human serum (human) (UniProt O00187); test: cell-based or functional assay

- Kd (MASP-2-CCS-Flag (human)): 8.83 nM
- koff (MASP-2-CCS-Flag (human)): 0.017 s⁻¹
- kon (MASP-2-CCS-Flag (human)): 1.92e+06 M⁻¹ s⁻¹
- C4 cleavage IC50 (4% human serum) [1]: 0.201 nM
- IC50 of inhibition of MASP-2-catalyzed C4 cleavage (4% human serum, C4b ELISA) [1]: 0.287 nM
- IC50 of inhibition of MASP-2-catalyzed C4 cleavage in 90% human serum [1]: 8.23 nM
- IC50 of inhibition of MASP-2-mediated C3b production (4% C1q-removed human serum) [1]: 1.74 nM
Substance: Narsoplimab (antibody)

Source: patent US20240043563A1
